# From ChEMBL document CHEMBL1150776, “Naturally occurring pentacyclic triterpenes as inhibitors of glycogen phosphorylase: synthesis, structure-activity relationships, and X-ray crystallographic studies” (J Med Chem, 2008)
# Target: T1, Glycogen phosphorylase, muscle form (Oryctolagus cuniculus, UniProt P00489)
# T1 sequence (P00489 whole entry): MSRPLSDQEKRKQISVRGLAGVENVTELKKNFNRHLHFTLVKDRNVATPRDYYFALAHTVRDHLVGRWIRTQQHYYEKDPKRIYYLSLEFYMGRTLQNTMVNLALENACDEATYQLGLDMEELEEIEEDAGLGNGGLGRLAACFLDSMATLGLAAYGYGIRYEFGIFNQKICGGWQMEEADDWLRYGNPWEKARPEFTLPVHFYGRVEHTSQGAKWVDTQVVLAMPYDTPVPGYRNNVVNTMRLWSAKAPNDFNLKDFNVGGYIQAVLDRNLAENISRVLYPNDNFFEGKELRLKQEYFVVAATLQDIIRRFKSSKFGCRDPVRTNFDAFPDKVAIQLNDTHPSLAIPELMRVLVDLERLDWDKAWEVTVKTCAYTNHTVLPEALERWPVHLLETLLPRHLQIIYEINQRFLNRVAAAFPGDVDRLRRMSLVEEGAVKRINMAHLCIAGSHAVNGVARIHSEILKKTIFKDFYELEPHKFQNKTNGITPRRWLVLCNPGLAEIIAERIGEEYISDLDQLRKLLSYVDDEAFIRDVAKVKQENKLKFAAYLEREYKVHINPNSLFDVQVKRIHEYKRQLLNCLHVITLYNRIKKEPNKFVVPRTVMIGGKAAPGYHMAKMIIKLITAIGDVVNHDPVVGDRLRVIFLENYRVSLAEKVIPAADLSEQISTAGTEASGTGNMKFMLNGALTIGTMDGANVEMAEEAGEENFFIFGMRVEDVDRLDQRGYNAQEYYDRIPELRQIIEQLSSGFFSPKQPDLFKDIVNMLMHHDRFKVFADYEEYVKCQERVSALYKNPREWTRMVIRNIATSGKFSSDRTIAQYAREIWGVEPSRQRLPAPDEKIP
# Test: Inhibition of rabbit muscle glycogen phosphorylase A assessed as phosphate release from glucose-1-phosphate
compound,measurement,value
CC1(C)CC[C@]2(C(=O)O)CC[C@]3(C)C(=CC[C@@H]4[C@@]5(C)CC[C@@H](O)C(C)(C)[C@@H]5CC[C@]43C)[C@@H]2C1,pIC50,4.68

# pIC50: −log10 of the molar value.
